GLS inh = inhibitors of human glutaminase (GLS); AID 624170; GLS enzymatic activity, qHTS titration; actives 0.21% (n = 410,000); Potency, µM (doses to about 45.5 µM), without a hit: at the top dose activity change, negative = inhibition, usual class: inhibitors; O94925; note: potency is the fitted concentration of half-maximal effect; % is set by controls: 0 for no effect and ±100 for the full control effect
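hKGA in 45 mM KH2PO4 pH 8.2, 0.02% Tween-20 with pin-transferred compounds; 1 mM L-glutamine (stock) plus glutamate oxidase/HRP/Amplex Red coupling added. Fluorescence read initially and after 30 min at RT.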
USP2a block = inhibitors of human ubiquitin-specific protease USP2a. AID 463254. USP2 core, Ub-CHOP2 coupled fluorogenic reporter, 485/531. actives 0.01% (n = 330,000). Potency, µM (highest dose often 38.3 µM), inactives show top-dose activity change, negative = inhibition, most hits filed as inhibitors;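 note: potency is the fitted concentration of half-maximal effect; plate controls were DMSO wells for no effect and full inhibition by NEM control for full effect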
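Cell-free coupled assay: 10nM USP2 core preincubated 30min RT with compound in Tris-HCl pH 8.0/CaCl2/CHAPS buffer, then 25nM Ub-CHOP2 and 25nM reporter substrate; fluorescence (Ex 485/Em 531) read after 60min RT, normalized to NEM inhibition, concentration-response curves fitted.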
PTAP TSG101 blk = blocks PTAP/TSG101 interaction to inhibit HIV-1 budding; Q99816; 340,000 tested, under 10 active; Potency, µM (series often up to 115 µM), inactives show at the top dose activity change, negative = inhibition, usual class: inhibitors; Fluorescence polarization, FITC-PTAP peptide / Tsg101 binding; AID 493005; active = well fitted inhibition curve with a large enough effect in the main read-out, with a control signal flat, not every such curve was filed as active; inconclusive = small, poorly fitted or top-dose-only effect, or effect the other way, or a change in a side signal; inactive = no such curve, though single readings can be large or run the other way; note: potency is the fitted concentration of half-maximal effect; % of control where 0% means no effect
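Fluorescence polarization binding of Tsg101 binding domain (10 uM final) to FITC-labeled PTAP peptide (50 nM final) in HEPES pH 7.5 buffer with NaCl, Tween 20, EDTA, TCEP. Compounds added before peptide; binding 20 min at RT.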
PTHR1 agonist = agonists of human PTHR1 parathyroid hormone receptor | Q03431 | HEK293 GP2 PTHR1 cells, GloSensor cAMP luminescence, 1 h | Potency, µM (titrated, usually from 115 µM), inactives show at the top dose activation, most hits filed as activators | actives 0.075% (n = 410,000); note: potency is the fitted concentration of half-maximal effect; nearly all actives have a fitted effect of over 55% in size
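HEK-293-derived GP2 cells expressing PTHR1 and a GloSensor cAMP reporter, 3,000/well, plated overnight, given luciferin plus IBMX (each 0.5 mM as added) for 1 h at 37 °C, then compound for 1 h at 37 °C. Luminescence was read after 15 min at room temperature.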
miR-21 FLuc = raises the signal of a miR-21 reporter | Potency, µM (doses to about 38.3 µM), for inactives: top-dose reporter change, positive = more light | HeLa miR-21 FLuc reporter, luciferase, 48 h | AID 2288 | 340,000 tested, under 10 active; active = well fitted rising curve with a large enough effect; inconclusive = small, poorly fitted or top-dose-only effect; inactive = no such curve, though single readings can be large or run the other way;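 also: % of control where 0% means no effect; miR-21 action dims this reporter so a rising signal means less miR-21 action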
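Compounds were titrated across several concentrations (up to approximately 40 uM) and incubated 48 hours with HeLa miR-21-FLuc reporter cells (miR-21 target sequence downstream of FLuc, endogenous miR-21). Readout was firefly luciferase luminescence after lytic detection reagent.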
Eya2 inh = blocks the phosphatase activity of human Eya2; O00167; recombinant Eya2, OMFP fluorescence dephosphorylation (OMFP is methylfluorescein phosphate); Potency, µM (top dose mostly 76.9 µM), for inactives: at the highest dose activity, negative = inhibition, usual class: inhibitors; actives 0.006% (n = 330,000); note: potency is the fitted concentration of half-maximal effect; % is set by controls: 0 for no effect and ±100 for the full control effect
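Eya2 (0.2 uM) preincubated 10 min at ambient with compound, then OMFP substrate added at 50 uM; 10 min reaction in 50 mM HEPES pH 7.5, 50 mM NaCl, 5 uM MgCl2, 0.05% BSA, 1 mM DTT. Fluorescence read at Ex 485/Em 525 nm.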
Active calls of the source: *; i = inactive; u = inconclusive; x = no result given; ! = a repeat was not active; [ ] = remark or other dose. Hits are enriched below; roughly 0.24% of the tested compounds scored in any of these assays. Unless noted, calls come from the whole dose curve; as a rule, active = well fitted curve in the direction sought with a large enough effect; inconclusive = small, poorly fitted or top-dose-only effect, or another doubt; inactive = no such curve, though single readings can be large; an effect the other way counts as inactive or inconclusive.

SMILES | PTHR1 agonist | GLS inh | PTAP TSG101 blk | miR-21 FLuc | USP2a block | Eya2 inh
O=C(C(Cc1ccccc1)n1cccc1)N1CCN(c2ccccc2)CC1 (configuration not stated) | -41% | 3% | -13% | 22% | -10% | 7%
CCCN(Cc1cccs1)C(=O)Nc1cc(C)ccc1OC | -42% | 1% | x | -2% | x | x
Cc1ccc(O)c(N=Cc2sc3ccccc3c2Cl)c1 | -34% | 11µM* | -4% | -19% | -1% | -10%
CC1=C(C(=O)Nc2ccccc2C)C(c2cccs2)n2nc(SCc3ccccc3)nc2N1 (configuration not stated) | -4% | -2% | x | -11% | x | x
Cc1ccc(-n2nc(C)c3c(C(=O)NCc4ccc(F)cc4)cc(C)nc32)cc1 | -29% | -9% | x | 1% | x | x
COC(=O)COc1ccc(-c2nnc(Nc3ccc(O)cc3)c3ccccc23)cc1 | -46% | 37% | x | u | x | x
CNC(=O)c1cc(Nc2nnc(-c3ccc(O)cc3)c3ccccc23)ccc1OC | -8% | 11µM* | -5% | 4% | -6% | -9%
Oc1ccc(-c2nnc(Nc3cccc(O)c3)c3ccccc23)cc1 | i | u | -4% | 4% | 3% | -5%
CN(C)C(=O)c1ccc(Nc2nnc(-c3ccc(O)cc3)c3ccccc23)cc1 | i | 11µM* | 0% | 7% | 3% | -10%
NC(=O)COc1ccc(Nc2nnc(-c3ccc(O)cc3)c3ccccc23)cc1 | -22% | 7.9µM* | -1% | 7% | -1% | -10%
CNC(=O)c1ccc(Nc2nnc(-c3ccc(O)cc3)c3ccccc23)cc1 | -37% | u | -1% | 6% | -1% | -12%
COc1cccc(NC(=O)CSc2nc(=O)n(Cc3cccnc3)c3c2CCC3)c1 | i | -10% | x | -3% | x | x
Cc1ccc(Cl)cc1NC(=O)Nc1nnc(N2CCCC(C)C2)s1 (configuration not stated) | 19% | -2% | x | 17% | x | x
Cc1cc(-c2ccccc2)nc2c(Br)c(C(=O)O)nn12 | i | 16µM* | -11% | x | x | x
O=C(C1=C(O)C(=O)N(c2nc3ccc(Cl)cc3s2)C1c1ccco1)c1ccco1 (configuration not stated) | -60% | 18µM* | -1% | x | -16% | 7%

Of the compounds above, these have a Cl atom.
SMILES | PTHR1 agonist | GLS inh | PTAP TSG101 blk | miR-21 FLuc | USP2a block | Eya2 inh
Cc1ccc(O)c(N=Cc2sc3ccccc3c2Cl)c1 | -34% | 11µM* | -4% | -19% | -1% | -10%
Cc1ccc(Cl)cc1NC(=O)Nc1nnc(N2CCCC(C)C2)s1 (configuration not stated) | 19% | -2% | x | 17% | x | x
O=C(C1=C(O)C(=O)N(c2nc3ccc(Cl)cc3s2)C1c1ccco1)c1ccco1 (configuration not stated) | -60% | 18µM* | -1% | x | -16% | 7%

Later entries:
SMILES | PTHR1 agonist | GLS inh | PTAP TSG101 blk | miR-21 FLuc | USP2a block | Eya2 inh
CCOC(=O)N1CCN(C(=O)c2ccc3c(c2)N(Cc2ccccc2F)C(=O)c2ccccc2S3(=O)=O)CC1 | -13% | 2% | x | -1% | x | x
CCc1ccc(S(=O)(=O)/N=C2\C=C(Nc3ccc(O)cc3)C(=O)c3ccccc32)cc1 | -24% | 4.5µM* | 0% | u | -2% | 0%
Cc1ccc(NC(=S)NCc2ccccn2)cc1 | 16µM* | -10% | -5% | -27% | -4% | 0%
Cc1[nH]c(=O)[nH]c(=S)c1C(=O)Nc1ccc(Cl)c(Cl)c1 | -1% | 1.8µM* | -2% | x | x | x
COc1cc(N=c2ssnc2Cl)c(OC)cc1Cl | -19% | 16µM*! | 3% | 10% | -2% | 0%
COc1ccc(OC)c(N=c2ssnc2Cl)c1 | i | 39% | -1% | -4% | 2% | 5%
CC(C)(S)C(=O)NC(CS)C(=O)O (configuration not stated) | x | -1% | x | x | x | x
COc1cc(O)c(C(C)=O)c(CC(=O)O)c1 | i | 10µM* | -8% | 3% | -6% | 5%
COCCNC(=S)N/N=C(\C)c1ccc(O)cc1 | i | 19% | -1% | -7% | 5% | 3%
C/C(=N\NC(=S)Nc1ccccc1C)c1ccc(O)cc1 | -3% | 10µM* | 1% | -20% | 0% | 5%
COc1cc(CNc2ccc(N3CCOCC3)cc2)cc(Br)c1OC | i | 16% | -1% | 0% | -2% | -7%
CCOc1cc(CNc2ccc(N3CCOCC3)cc2)cc(Br)c1OCC | -22% | 13µM* | -1% | 4% | 0% | -19%
CN(C)c1ccc(NC(=O)Cn2cc(S(=O)(=O)Cc3ccccc3Cl)c3ccccc32)cc1 | i | 2% | x | 3% | x | x
O=C(c1ccc2nc(-c3ccco3)c(-c3ccco3)nc2c1)N1CCN(c2ccccc2)CC1 | -22%[57.5 µM] | 7% | -15% | 8% | 2% | 3%
O=C(O)c1ccc2nc(-c3ccco3)c(-c3ccco3)nc2c1 | -11% | 7.1µM* | -1% | 3% | 1% | 1%

Profiles, looked up by structure. Values in the order: PTHR1 agonist	GLS inh	PTAP TSG101 blk	miR-21 FLuc	USP2a block	Eya2 inh
COc1cc(CNc2ccc(N3CCOCC3)cc2)cc(Br)c1OC as listed: i	16%	-1%	0%	-2%	-7%
COc1ccc(OC)c(N=c2ssnc2Cl)c1 as listed: i	39%	-1%	-4%	2%	5%

The list goes on:
SMILES | PTHR1 agonist | GLS inh | PTAP TSG101 blk | miR-21 FLuc | USP2a block | Eya2 inh
O=C(O)c1cc(-c2ccco2)nc2ccc(Br)cc12 | -14% | 7.9µM*! | -15% | -4% | 1% | 15%
CCCCCC(=O)Nc1nc(C)c(-c2csc(Nc3cc(OC)ccc3OC)n2)s1 | 45µM* | 4% | -6% | -27% | 1% | 13%
CCCCCCC(=O)Nc1nc(C)c(-c2csc(Nc3cc(OC)ccc3OC)n2)s1 | u | 1% | -4% | -17% | 2% | 11%
COc1ccccc1-n1c(/C=C/c2c(C)n(C)c3ccccc23)nc2ccccc2c1=O | i | -14% | x | 20% | x | x
Cc1cc(-c2ccc(C)c(S(=O)(=O)N(C)c3ccc(C)c(C)c3)c2)on1 | -54% | 2% | x | 18% | x | x
O=C(O)c1cccc2cccc(-c3c4ccc(=O)c(O)c-4oc4c(O)c(O)ccc34)c12 | -34% | 1.8µM* | -16% | x | x | x
O=C(O)c1ccccc1-c1c2cc(Br)c(=O)c(Br)c-2oc2c(Br)c(O)c(Br)cc12 | x | -28% | x | x | x | x
C=C(C)C(=O)Nc1cccc(C2=NOC3(C2)C[C@@H](C(N)=O)N(C(=O)CCCCC)C3)c1 (some centres not stated) | i | 10µM* | -4% | 3% | 8% | -11%
COc1ccccc1CNC(=O)CCC(=O)N1CC2CCCN2c2ccccc21 (configuration not stated) | 18% | -3% | x | 4% | x | x
O=C1C=CC(=O)c2c(O)c(CO)c(CO)c(O)c21 | -19% | 3.5µM* | u | x | x | x
CCCCC(=O)Nc1ccc(C2C(=O)c3ccccc3C2=O)cc1 | -43% | 18µM* | 1% | x | x | x
O=[N+]([O-])c1ccc(N2CCN(c3ccc(O)cc3)CC2)cn1 | -23% | 10µM* | -2% | 11% | 0% | -4%
O=[N+]([O-])c1ccc(N2CCN(c3ccccc3Cl)CC2)cn1 | -29% | -9% | -1% | -15% | 1% | 1%
Clc1cccc(Cc2c(-c3ccco3)nc3ccc(Br)cn23)c1 | -1% | 11µM* | x | x | x | x
Clc1cccc(Cc2c(-c3ccco3)nc3ccc(Cl)cn23)c1 | -15% | u | x | x | x | x
O=c1oc2c(O)c(O)cc3c(=O)oc4c(O)c(O)cc1c4c23 | i | 2.8µM*! | -3% | 0% | 1.1µM* | 0%
